The text below walks through data of paper PMC7615550, “Structural mechanism of outer kinetochore Dam1:Ndc80 complex assembly on microtubules” (Science (New York, N.Y.), 2023).

The target in this assay is T1, Ndc80 subunit of the Ndc80 complex (S. cerevisiae, UniProt P40460 1-691).
T1 construct: Ndc80, S. cerevisiae, as a subunit of the reconstituted Ndc80 complex; Stood in the assay inside the whole Ndc80c; also called Ndc80^CH; Ndc80^CC; source: purified as part of Ndc80c
T1 sequence: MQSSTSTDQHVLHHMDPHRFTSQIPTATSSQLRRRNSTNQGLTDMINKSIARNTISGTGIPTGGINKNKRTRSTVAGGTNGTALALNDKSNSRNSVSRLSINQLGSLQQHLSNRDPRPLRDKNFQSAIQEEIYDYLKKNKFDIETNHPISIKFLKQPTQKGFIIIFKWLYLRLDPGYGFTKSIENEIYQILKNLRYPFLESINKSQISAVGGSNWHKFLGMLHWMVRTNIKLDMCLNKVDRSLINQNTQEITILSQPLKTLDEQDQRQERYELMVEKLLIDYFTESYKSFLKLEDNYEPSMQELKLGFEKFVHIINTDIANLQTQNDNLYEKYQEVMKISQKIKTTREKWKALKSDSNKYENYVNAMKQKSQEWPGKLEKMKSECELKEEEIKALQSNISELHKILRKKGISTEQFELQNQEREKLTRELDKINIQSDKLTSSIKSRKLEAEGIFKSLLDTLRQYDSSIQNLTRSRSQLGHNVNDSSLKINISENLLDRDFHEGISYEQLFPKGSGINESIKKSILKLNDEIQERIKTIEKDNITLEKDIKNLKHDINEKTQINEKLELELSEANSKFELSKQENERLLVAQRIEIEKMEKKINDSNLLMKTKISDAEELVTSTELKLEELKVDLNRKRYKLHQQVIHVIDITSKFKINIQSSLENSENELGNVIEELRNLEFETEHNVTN
Put plainly: cryo-EM structure; outer kinetochore Dam1c:Ndc80c:microtubule complexes assembled on cryo-EM grids by step-wise addition of taxol-stabilized microtubules, Ndc80c, and Dam1c. As to conditions: both partners purified.

B1: Nuf2 subunit of the Ndc80 complex (natural protein, S. cerevisiae)
chain: MSRNQDVFPILDLQELVICLQSCDFALATQENISRPTSDYMVTLYKQIIENFMGISVESLLNSSNQETGDGHLQEENENIYLDTLNVLVLNKICFKFFENIGVQDFNMTDLYKPEAQRTQRLLSAVVNYARFREERMFDCNSFILQMESLLGQLRSKFDDYNLIQQQLKQYEDVDGDNIPDEQELQKLEEQNKELEIQLKKLTKIQETLSIDYNDYKISKQSIFKDLEALSFQIVELESNRDKLIKISNTDMEELSEGIKELNDLLIQRKKTLDDLTAQQKNLQDTVTTFETIISELYDVLRIISSEVQESNRTETELVGLKQNLINNKLKLMNVLETGIMYKLEILQEQLDLQLKNLEKLSQDTKEESRLNDTKLMDLQIKYENEIKPKIDKTDIFIQEELISGKINKLNDEIKQLQKDFEVEVKEIEIEYSLLSGHINKYMNEMLEYMQ
notes: Nuf2, S. cerevisiae, as a subunit of the reconstituted Ndc80 complex; Stood in the assay inside the whole Ndc80c; also called Nuf2^CH; Nuf2^CC; source: purified as part of Ndc80c
In the case of B1, the binding result is reported as “binds”.
